# Binding of CDR-mutated scFvs to a peptide of the spike HR2 region

Binding partner: SARS-CoV-2 spike HR2 peptide, sequence PDVDLGDISGINAS.

Parent scFv Ab-14: VH joined to VL by the linker GGGGSGGGGSGGGGS. Changes lie in the light chain CDRs alone.
VH: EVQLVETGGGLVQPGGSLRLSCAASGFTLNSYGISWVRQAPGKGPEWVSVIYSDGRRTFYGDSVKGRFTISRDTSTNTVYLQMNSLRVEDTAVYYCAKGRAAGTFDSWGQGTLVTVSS
VL: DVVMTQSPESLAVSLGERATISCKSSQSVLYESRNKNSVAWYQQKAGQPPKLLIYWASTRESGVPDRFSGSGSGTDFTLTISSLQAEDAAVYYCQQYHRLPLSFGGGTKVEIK

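The starting antibody came from a phage panning campaign against this peptide. In library AAYL50, one, two or three CDR residues were substituted; doubles and triples were drawn at random. In AlphaSeq, yeast of one mating type display the scFv and yeast of the other type display the target. Pairs that bind mate more often; barcode pairs of the diploids are counted by sequencing. Each replicate has its own calibration line, from reference interactions of the BCL2 family. Mating was done three times.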

Substitutions are numbered in sequence along the VL above, starting at 1 (not Kabat).
Each Kd is an estimate from the mating assay, the geometric mean of the replicates in which the pair was seen; lower is stronger.
"nd" marks a missing value. The strain was present, yet no cells mated with the target were sequenced in any replicate, which points to weak or no binding.
Entries are sorted by rising average, undetected variants last.
As a blank, each scFv also met three strains without target: over library AAYL50, 18% of these pairings were detected, typically at 15 µM and seldom below 970 nM.

Read-out 1.8 nM (3 of 3 replicates), from S25H S26P T59E.
Read-out 2.6 nM (3 of 3 replicates), from S25M R99L.
Read-out 2.8 nM (3 of 3 replicates), from R34E N35Y.
Read-out 3.4 nM (3 of 3 replicates), from S26D S28N S58A.
Read-out 9.8 nM (3 of 3 replicates), from S25T S26F Y31L.
Read-out 10 nM (3 of 3 replicates), from L30T N37G L102F.
Read-out 53 nM (3 of 3 replicates), from S28W Q95C Y97E.
Read-out 120 nM (3 of 3 replicates), from S25R H98A R99N.
Read-out 130 nM (3 of 3 replicates), from K24A S33A Q96H.
Read-out 150 nM (3 of 3 replicates), from N35S K36S L102W.
Read-out 160 nM (3 of 3 replicates), from Q27R Y31W S62G.
Read-out 410 nM (1 of 3 replicates), from K24L S28M Y97A.
Read-out 530 nM (1 of 3 replicates), from V29I E32C E61L.
Read-out 1.3 µM (1 of 3 replicates), from A40R E61T H98T.
Read-out 2.4 µM (2 of 3 replicates), from S25M R60D.
Read-out 3.4 µM (2 of 3 replicates), from E32A A40Q Q95I.
Read-out 3.9 µM (1 of 3 replicates), from N37I L102T.
Read-out 4.5 µM (3 of 3 replicates), from L30Y S33T A57L.
Read-out 4.6 µM (2 of 3 replicates), from N35G K36G A40T.
Read-out 5.1 µM (3 of 3 replicates), from N35L T59F S103M.
Read-out 5.7 µM (3 of 3 replicates), from S38H V39W H98L.
Read-out 9.1 µM (1 of 3 replicates), from S26K K36R L100E.
Read-out 330 µM (1 of 3 replicates), from Q27F R34Y R60F.
Read-out 330 µM (1 of 3 replicates), from A40F Q95M.
Read-out 360 µM (2 of 3 replicates), from L30C Q96R S103Q.
Read-out 870 µM (1 of 3 replicates), from V39A A40H E61M.
Read-out nd (0 of 3 replicates), from T59N L100Q S103D.
Read-out nd (0 of 3 replicates), from S33K A57H.
Read-out nd (0 of 3 replicates), from T59Q L100D P101S.
Read-out nd (0 of 3 replicates), from R60N Q95N.
Read-out nd (0 of 3 replicates), from E61T Y97G L102Q.
Read-out nd (0 of 3 replicates), from E61S Q95C S103W.
Read-out nd (0 of 3 replicates), from R34Y A40V L100R.
Read-out nd (0 of 3 replicates), from Q27D V39I L102V.
Read-out nd (0 of 3 replicates), from S26D T59A Y97N.
Read-out nd (0 of 3 replicates), from Q27I N37V T59R.
Read-out nd (0 of 3 replicates), from S26Q Y31R S38F.
Read-out nd (0 of 3 replicates), from S38V A40Q Q95S.
Read-out nd (0 of 3 replicates), from S28Y N35M P101F.
Read-out nd (0 of 3 replicates), from V29G N37F Q96N.
Read-out nd (0 of 3 replicates), from S26M Q95L.
Read-out nd (0 of 3 replicates), from Y31T S33K A57C.
Read-out nd (0 of 3 replicates), from A40D E61R L100K.
Read-out nd (0 of 3 replicates), from E32R A40Y L100T.
Read-out nd (0 of 3 replicates), from T59I E61R L100S.
Read-out nd (0 of 3 replicates), from N37I V39S.
Read-out nd (0 of 3 replicates), from S33R S38C.

The 6 strongest on average among those seen in every replicate, once more:

changes,Kd,replicates with signal
S25H S26P T59E,1.8 nM,3/3
S25M R99L,2.6 nM,3/3
R34E N35Y,2.8 nM,3/3
S26D S28N S58A,3.4 nM,3/3
S25T S26F Y31L,9.8 nM,3/3
L30T N37G L102F,10 nM,3/3

In this assay the parent's reference entry averaged 4.4 nM; its copy inside this library read 48 nM.

The measurements come from Engelhart et al. 2022 (doi:10.1038/s41597-022-01779-4) through the FLAb antibody collection.